Assay results taken from patent US20220348565A1, “PHARMACEUTICAL COMPOUNDS” (SENTINEL ONCOLOGY LIMITED, priority 2019, published 2022).

Experiment: Gravimetric solubility in water
Assay type: physicochemical
Experimental: The solubility in water of the salts was measured using a gravimetric solubility protocol.
(§1) 1 ml of water was charged into crystallisation tubes. The solid was weighed into a tared glass vial, added in portions to the solutions and the vial weighed after each addition until a hazy solution was observed. The amount in mg was then calculated to give the solubility in mg/ml.
as §1, with “The solubility in water of the salts was measured using a gravimetric solubility protocol. Thus, 1” for “1”, “mg/mL.” for “mg/ml.”

A Solubility in water of 7500 µg/mL was found for `CN(C)CCNC(=O)c1ccc(-c2ccc(-c3ccc(Cl)cc3)n2-c2ccccc2C(F)(F)F)cc1.O=C(O)C(O)C(O)C(=O)O` [Tartrate Pattern B, (R)-4-[5-(4-chlorophenyl)-1-[2-(trifluoromethyl)phenyl]pyrrol-2-yl]-N-[2 (dimethylamino)ethyl]benzamide tartrate] in this work.
